The list shows a part of the results, in another mix than the full data. Records with an inconclusive call do not appear. Activity calls are given as the source filed them. Calls follow the shape of the dose curve; as a rule, active = well fitted curve in the direction sought with a large enough effect; inconclusive = small, poorly fitted or top-dose-only effect; inactive = flat fitted curve, though single readings scatter.
% is scaled to controls: 0 for no effect and ±100 for the full control effect.

The nature of the experiment: Counterscreen qHTS for Inhibitors of Tau Fibril Formation, Fluorescence Polarization. Also: nearly all actives have a fitted effect of over 55% in size. Particulars: tau K18 P301L (four-repeat tau fragment) Alexa594 fluorescence, heparin fibrillization; at 57.7 µM (top of the series). (Counterscreens check selectivity or assay interference.)
As for `CN(CCCl)CCCl`, the activity change, negative = decrease was inactive: -9.34%.
